Screens: PubChem, National Center for Advancing Translational Sciences (NCATS)
Rows were chosen to be rich in hits. Some 0.1% of all compounds tested hit in one or more screens of this group.
LMNA splice mod – qHTS Assay for Modulators of Lamin A Splicing; Potency, µM (titrated, usually from 46.1 µM), for the others: at the top dose ratio change, negative = inhibition, usual class: inhibitors; hit rate 0.01% among 200,000; HeLa LMNA splicing GFP/RFP minigene ratio, 48 h; active = well fitted inhibition curve with a large enough effect in the signal ratio, with a control signal flat, not every such curve was filed as active; inconclusive = small, poorly fitted or top-dose-only effect, or effect the other way, or a change in a side signal; the % refers to the signal ratio; also: % is scaled to controls: 0 for no effect and ±100 for the full control effect
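S3 HeLa stable clones carrying a lamin A-EGFP splicing minigene plus DsRed2 were seeded at 600 cells/well in Opti-MEM with 2% FBS, pin-dosed and incubated 48 h at 37°C. Acumen cytometry (488 nm) gave the GFP/RFP total-intensity ratio.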
Rango complex inh – qHTS Assay for Inhibitors of Rango (Ran-regulated importin-beta cargo) - Importin beta complex formation | Importin subunit beta-1 (Homo sapiens), Q14974 | Rango CFP/YFP FRET sensor + importin beta, 45 min | Potency, µM (series often up to 92.2 µM), for the others: at the highest dose inhibition of complex formation | hit rate 0.031% among 340,000 | AID 540263, 2011;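 also: 0% = DMSO wells and 100% = buffer wells lacking importin beta; nearly all actives have a fitted effect of over 15% in size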
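Inhibition scored from the CFP 486 nm/YFP 530 nm FRET ratio 45 min after adding 0.125 microM importin beta to 50 nM Rango biosensor preincubated 5 min with compound (room temperature, PBS with DTT, Tween-20, BSA). No-importin wells as positive control.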
Rango dissoc inh – qHTS Assay for Inhibitors of RanGTP induced Rango (Ran-regulated importin-beta cargo) - Importin beta complex dissociation; AID 540253, 2011; Snurportin-1 (Homo sapiens) + GTP-binding nuclear protein Ran (Homo sapiens) + Importin …; Biochemical FRET Rango-importin beta, RanGTP-induced dissociation; Potency, µM (titrated, usually from 46.1 µM), inactives show top-dose activity change, negative = inhibition; hit rate 0.071% among 340,000; also: % of control where 0% means no effect; nearly all actives have a fitted effect of over 45% in size
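Two FRET readings bracket the reaction: one 5 min after compound meets Rango–importin beta, another 45 min after RanGTP-RCC1 (0.6 uM Ran, 0.2 uM RCC1, 2 mM GTP) is added. Only the second defines inhibition.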
An asterisk follows results filed as active; [ ] = remark or other dose. Unless noted, calls follow the shape of the full dose curve. Potency is read from the fitted curve at half-maximal effect.

Protein sequences, listed by entry. Tags and fused reporters are not part of them.
Importin subunit beta-1 (Homo sapiens), Q14974, UniProt Q14974, whole entry, looked up: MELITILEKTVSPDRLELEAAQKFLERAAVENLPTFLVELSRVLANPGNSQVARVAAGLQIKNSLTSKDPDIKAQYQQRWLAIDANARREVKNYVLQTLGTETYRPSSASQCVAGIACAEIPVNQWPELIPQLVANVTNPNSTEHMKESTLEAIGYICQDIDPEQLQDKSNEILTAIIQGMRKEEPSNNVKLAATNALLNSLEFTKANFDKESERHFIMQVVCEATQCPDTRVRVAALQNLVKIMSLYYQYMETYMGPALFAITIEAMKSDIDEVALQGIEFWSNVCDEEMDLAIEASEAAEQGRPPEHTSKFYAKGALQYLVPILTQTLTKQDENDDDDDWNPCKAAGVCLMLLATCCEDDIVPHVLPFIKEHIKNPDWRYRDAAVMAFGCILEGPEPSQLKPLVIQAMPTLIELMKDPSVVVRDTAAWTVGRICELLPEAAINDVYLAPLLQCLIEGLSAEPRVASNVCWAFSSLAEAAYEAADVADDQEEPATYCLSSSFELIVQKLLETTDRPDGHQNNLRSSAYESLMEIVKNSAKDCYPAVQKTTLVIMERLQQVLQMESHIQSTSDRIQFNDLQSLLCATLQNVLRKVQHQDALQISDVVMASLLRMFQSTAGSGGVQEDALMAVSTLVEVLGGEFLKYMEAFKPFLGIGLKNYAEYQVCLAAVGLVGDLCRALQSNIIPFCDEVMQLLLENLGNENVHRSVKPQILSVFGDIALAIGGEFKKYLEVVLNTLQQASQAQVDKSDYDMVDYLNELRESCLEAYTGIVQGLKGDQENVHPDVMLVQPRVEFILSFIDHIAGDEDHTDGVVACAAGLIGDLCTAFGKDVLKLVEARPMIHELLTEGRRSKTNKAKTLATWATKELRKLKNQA

`CCOC(=O)C(Cc1ccccc1)NC(=O)CCc1c(C)nc2ncnn2c1C` (configuration not stated) gave LMNA splice mod 7%[0.0737 µM], Rango complex inh inconclusive and Rango dissoc inh 1%.
`CCOC(=O)C(Sc1cc(-c2ccccc2)nc2ncnn12)C(C)=O` (configuration not stated) gave Rango complex inh inconclusive and Rango dissoc inh 12µM*.
`CC(=O)Nc1ccc(S(=O)(=O)NC2=C(N3CCN(c4ccc(F)cc4)CC3)C(=O)c3ccccc3C2=O)cc1` gave LMNA splice mod 11µM*, Rango complex inh 0% and Rango dissoc inh 3%.
Cc1ccc(S(=O)(=O)NC2=C(N3CCN(c4ccccc4F)CC3)C(=O)c3ccccc3C2=O)cc1 was read as LMNA splice mod 5%[0.0737 µM], Rango complex inh -2% and Rango dissoc inh 6%.
Cc1ccccc1Cn1c(C)nc2ccc([N+](=O)[O-])cc2c1=O was read as Rango complex inh 58µM* and Rango dissoc inh 0%.
`Cc1cccc(Cn2c(C)nc3ccc([N+](=O)[O-])cc3c2=O)c1` gave Rango complex inh 5% and Rango dissoc inh 17%.
`CN(C)c1ccc(C=C2C(=O)OC(C)(C)OC2=O)cc1` gave Rango complex inh 2% and Rango dissoc inh -6%.
Screening CN(C)c1ccc(/C=C2/C[N+](C)(C)C/C(=C/c3ccc(N(C)C)cc3)C2=O)cc1 returned Rango complex inh inconclusive and Rango dissoc inh 16µM*.
Screening CCC(=O)N1CCc2cc(S(=O)(=O)CCC(=O)Nc3cccc(F)c3)ccc21 returned LMNA splice mod -12%, Rango complex inh 1% and Rango dissoc inh 1%.
`COc1ccc(C2=NOC(C(=O)Nc3ccc4c(c3)OCO4)C2)cc1OC` (configuration not stated) gave LMNA splice mod 12%[9.22 µM], Rango complex inh 0% and Rango dissoc inh 6%.
Screening CCN(CC(=O)Nc1cc(C)on1)CC(=O)Nc1ccccc1C(F)(F)F returned Rango complex inh inconclusive and Rango dissoc inh -22%.
`O=C(NCc1cccnc1)Nc1cccc([N+](=O)[O-])c1` gave Rango complex inh 14% and Rango dissoc inh inconclusive.
CCOC(=O)CSc1nc2sc3c(c2c(=O)n1-c1ccc(C)cc1)CCN(C)C3 was read as Rango complex inh inconclusive and Rango dissoc inh -14%.
CCOC(=O)CSc1nc2sc3c(c2c(=O)n1-c1ccccc1)CCN(C(C)C)C3 was read as Rango complex inh inconclusive and Rango dissoc inh 18µM*.
For O=C(Oc1ccc2c(-c3ccccc3)cc(=O)oc2c1)c1cccs1 the results were LMNA splice mod -17%, Rango complex inh inconclusive and Rango dissoc inh inconclusive.
Screening CCc1cc2c(-c3ccccc3)cc(=O)oc2cc1OC(=O)c1cccs1 returned LMNA splice mod -10%, Rango complex inh inconclusive and Rango dissoc inh 5.2µM*.
Screening CCOc1ccccc1NC(=O)[C@@H](NC(=O)c1cccc(S(=O)(=O)N2CCOCC2)c1)C(C)C returned LMNA splice mod -8%[46 µM], Rango complex inh -1% and Rango dissoc inh -16%.
N#Cc1c(C(F)(F)F)cc(-c2ccco2)nc1SCc1ccncc1 was read as LMNA splice mod -17%, Rango complex inh inconclusive and Rango dissoc inh inconclusive.
For N#Cc1c(C(F)(F)F)cc(-c2ccco2)nc1SCc1ccccn1 the results were LMNA splice mod inconclusive, Rango complex inh 37µM* and Rango dissoc inh -13%.
COC(=O)C1=C(C)NC(C)=C(C(=O)OC)C1C(=O)OCc1nnc(-c2ccccc2)o1 was read as Rango complex inh -4% and Rango dissoc inh -3%.
`CS(=O)(=O)C1=NN2C(=N)/C(=C\c3ccc(OC(=O)c4ccco4)cc3)C(=O)N=C2S1` gave Rango complex inh -3% and Rango dissoc inh inconclusive.
COc1cc(/C=C2/C(=N)N3C(=NC2=O)SN=C3S(=O)(=O)C(C)C)ccc1OC(=O)c1ccco1 was read as Rango complex inh inconclusive and Rango dissoc inh 8.2µM*.
Screening O=C(CCC1CCCC1)NNC(=O)c1cccc(Cl)c1 returned Rango complex inh -1% and Rango dissoc inh 1%.
For O=C(CCC1CCCC1)NNC(=O)c1cc2ccccc2cc1O the results were Rango complex inh inconclusive and Rango dissoc inh 18µM*.
`CCN1CCN(C(c2ccccc2)c2c(O)cc(C)n(Cc3ccco3)c2=O)CC1` (configuration not stated) gave LMNA splice mod -28%[46 µM].
For CCOC(=O)CCc1ccc(NC(=O)/C=C/c2ccc([N+](=O)[O-])o2)cc1 the results were Rango complex inh -6% and Rango dissoc inh 10µM*.
Cc1ccc(/C=C/C(=O)Nc2ccc([N+](=O)[O-])cc2)o1 was read as LMNA splice mod 6%, Rango complex inh 8% and Rango dissoc inh -7%.
Screening O=C(Nc1cccc(NC(=O)c2cc([N+](=O)[O-])ccc2Cl)n1)c1cc([N+](=O)[O-])ccc1Cl returned Rango complex inh 21µM* and Rango dissoc inh 1%.
`Cc1cc(NC(=O)c2cc([N+](=O)[O-])ccc2Cl)no1` gave Rango complex inh 1% and Rango dissoc inh 8%.
Cc1ccccc1NC(=O)c1ccc(F)c(S(=O)(=O)N2CCN(c3ccccc3F)CC2)c1 was read as LMNA splice mod -8%[46 µM].
CN(C)c1ccc(S(=O)(=O)NCC(=O)OCC(=O)c2ccc[nH]2)cc1[N+](=O)[O-] was read as Rango complex inh -2% and Rango dissoc inh 2%.
CC(=O)N(/N=C1\Sc2ccccc2C1=O)c1ccc(C)cc1C was read as LMNA splice mod inconclusive, Rango complex inh 0% and Rango dissoc inh -4%.
Screening CC(=O)N(/N=C1\Sc2ccccc2C1=O)c1ccccc1C returned LMNA splice mod 17%, Rango complex inh inconclusive and Rango dissoc inh 8.2µM*.
For C=C1C[C@@]23C[C@@]1(O)CCC2[C@@]12C=CC(O)[C@](C)(C(=O)O1)C2C3C(=O)O (some centres not stated) the results were LMNA splice mod -7%.
`CCOC(=O)c1c(C)c(C(=O)Nc2ccc(F)cc2)c(C)n1C` gave Rango complex inh -2% and Rango dissoc inh 6%.
For CCOC(=O)c1ccc2cccc(C)n2c1=O the results were LMNA splice mod -3%, Rango complex inh inconclusive and Rango dissoc inh 12µM*[inhibitor].
For CCOC(=O)c1cc(C(C)=O)c(=O)n(C)c1N the results were LMNA splice mod 5%, Rango complex inh 4% and Rango dissoc inh -2%.
O=C(NCc1ccco1)C1c2ccccc2Oc2ccccc21 was read as LMNA splice mod 11%, Rango complex inh inconclusive and Rango dissoc inh 2%.
For Nc1nc(SCC(=O)NCCOCCO)nc2sc3c(c12)CCCC3 the results were Rango complex inh 3% and Rango dissoc inh 0%.
`Cc1cccc2sc(NNC(=O)c3ccc(S(=O)(=O)N4CC(C)CC(C)C4)cc3)nc12` (configuration not stated) gave LMNA splice mod 18µM*, Rango complex inh 0% and Rango dissoc inh inconclusive.

2 entries picked at random from the list so far:
For CCOC(=O)c1cc(C(C)=O)c(=O)n(C)c1N the results were LMNA splice mod 5%, Rango complex inh 4% and Rango dissoc inh -2%.
For CCOC(=O)c1ccc2cccc(C)n2c1=O the results were LMNA splice mod -3%, Rango complex inh inconclusive and Rango dissoc inh 12µM*[inhibitor].

3 structures from above, arranged by heavy-atom count, low to high.
For CCOC(=O)c1cc(C(C)=O)c(=O)n(C)c1N the results were LMNA splice mod 5%, Rango complex inh 4% and Rango dissoc inh -2%.
Screening CC(=O)N(/N=C1\Sc2ccccc2C1=O)c1ccccc1C returned LMNA splice mod 17%, Rango complex inh inconclusive and Rango dissoc inh 8.2µM*.
For Nc1nc(SCC(=O)NCCOCCO)nc2sc3c(c12)CCCC3 the results were Rango complex inh 3% and Rango dissoc inh 0%.
